Structures are written as SMILES.

Amino acid sequences for entries named in this document (tags omitted). Residues count along the entry.
UniProt P29597, 888-1187: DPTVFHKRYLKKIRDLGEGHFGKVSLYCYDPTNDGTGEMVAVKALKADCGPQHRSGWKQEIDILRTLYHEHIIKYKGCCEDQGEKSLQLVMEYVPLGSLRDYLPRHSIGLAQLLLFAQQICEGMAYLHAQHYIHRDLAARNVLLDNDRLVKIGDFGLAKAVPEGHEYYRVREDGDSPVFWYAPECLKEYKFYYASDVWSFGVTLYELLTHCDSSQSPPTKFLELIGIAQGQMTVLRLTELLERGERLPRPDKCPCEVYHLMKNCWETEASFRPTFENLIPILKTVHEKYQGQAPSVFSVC
UniProt O60674, 808-1132: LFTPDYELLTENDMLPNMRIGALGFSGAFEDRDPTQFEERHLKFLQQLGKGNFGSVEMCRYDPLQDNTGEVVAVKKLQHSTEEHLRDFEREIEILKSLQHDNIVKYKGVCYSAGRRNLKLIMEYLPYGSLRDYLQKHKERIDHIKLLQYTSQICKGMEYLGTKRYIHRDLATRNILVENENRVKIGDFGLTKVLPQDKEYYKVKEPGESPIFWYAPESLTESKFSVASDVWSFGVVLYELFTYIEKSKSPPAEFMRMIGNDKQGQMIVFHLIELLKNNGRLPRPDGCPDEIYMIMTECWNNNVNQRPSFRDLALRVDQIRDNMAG

In general, IC50 refers to the concentration needed to halve the response being measured.

Assay [1] deals with recombinant human Tyk2 (aa888-1187) (Homo sapiens (Human), UniProt P29597). Put plainly: Kinase selectivity panel, substrate peptide phosphorylation (Caliper). The note with it: 45 uM ATP. It is filed as biochemical.
Assay [2] deals with recombinant human Jak2 (aa808-1132) (Homo sapiens (Human), UniProt O60674). Described as above. It is filed as biochemical.

Take `CC[C@@](C)(Nc1ccnc(-c2c[nH]c3ncccc23)n1)C(=O)NCC(F)(F)F` [reference compound]: the IC50 in assay [1] came to 1.5 µM. Regarding `CCS(=O)(=O)N1CC(CC#N)(n2cc(-c3ncnc4[nH]ccc34)cn2)C1`, the IC50 in assay [2] was found to be 0.004 µM. As for `O=C(Nc1nc2cccc(-c3ccc(CN4CCS(=O)(=O)CC4)cc3)n2n1)C1CC1` [reference compound], the IC50 in assay [1] was determined as 0.78 µM.

(Values after patent US10112907B2, “Substituted indazoles for treating tendon and/or ligament injuries” (NOVARTIS AG, priority 2016, dated 2018).)
